The values below are quoted from earlier work in patent US20100004244A1, “USE OF CB2 RECEPTOR AGONISTS FOR PROMOTING NEUROGENESIS” (priority 2006, published 2010).

Protein sequences, listed by entry. Tags and fused reporters are not part of them.
UniProt P34972, whole entry: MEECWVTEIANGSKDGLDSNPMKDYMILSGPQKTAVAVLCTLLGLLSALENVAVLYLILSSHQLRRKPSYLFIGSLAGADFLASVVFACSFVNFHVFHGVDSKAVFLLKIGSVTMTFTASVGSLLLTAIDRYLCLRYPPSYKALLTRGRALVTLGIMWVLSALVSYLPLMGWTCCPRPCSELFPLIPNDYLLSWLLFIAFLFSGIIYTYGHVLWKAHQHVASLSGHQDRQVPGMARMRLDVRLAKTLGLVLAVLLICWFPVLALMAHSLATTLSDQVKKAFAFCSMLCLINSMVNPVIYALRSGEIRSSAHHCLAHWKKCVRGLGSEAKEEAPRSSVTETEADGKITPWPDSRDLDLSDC

The series deals with human CB2 receptors (Homo sapiens, UniProt P34972). As to conditions: read-out: IC50 for binding to human CB2 receptors; as disclosed in WO 03/064359; cited from earlier work.

Consider `CCCCCCC(C)(C)c1cc(OC)c(C2C=C(CO)C3CC2C3(C)C)c(OC)c1` (single isomer, unassigned; (+)) [HU-308, (+) {4-[4-(1,1-dimethylheptyl)-2,6-dimethoxyphenyl]-6,6-dimethyl-bicyclo[3.1.1]hept-2-en-2-yl}-methanol], for which the IC50 was 13.3 nM.

Broadly, the IC50 is the concentration that inhibits the measured activity by half.
